The test addresses Serotonin 2 (5-HT2) receptor (Rattus norvegicus) (UniProt P30994+P08909+P14842). The test is described as follows: Selectivity ratio, Ki against 5-HT1C versus 5-HT2. In kind it is protein assay. In short, it runs like this: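 Rat frontal cortex homogenate (male Sprague-Dawley) was washed and preincubated 15 min at 37 °C in 50 mM Tris HCl, 0.5 mM EDTA, 10 mM MgCl2, pH 7.4, with 0.1% ascorbate and 10^-6 M pargyline. […] Nonspecific binding was set with 1.0 µM mianserin. Tubes ran 15 min at 37 °C in triplicate before filtration.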

The structures appear in SMILES notation.

For `O=C(CCCN1CCC(Nc2ccccc2)CC1)c1ccc(F)cc1`, the Ratio was found to be 65.
